What is called EC50 is the midpoint of the concentration-response curve. Lower therefore signals a more potent agent.

Protein sequences, listed by entry. Tags and fused reporters are not part of them.
UniProt P37238, whole entry: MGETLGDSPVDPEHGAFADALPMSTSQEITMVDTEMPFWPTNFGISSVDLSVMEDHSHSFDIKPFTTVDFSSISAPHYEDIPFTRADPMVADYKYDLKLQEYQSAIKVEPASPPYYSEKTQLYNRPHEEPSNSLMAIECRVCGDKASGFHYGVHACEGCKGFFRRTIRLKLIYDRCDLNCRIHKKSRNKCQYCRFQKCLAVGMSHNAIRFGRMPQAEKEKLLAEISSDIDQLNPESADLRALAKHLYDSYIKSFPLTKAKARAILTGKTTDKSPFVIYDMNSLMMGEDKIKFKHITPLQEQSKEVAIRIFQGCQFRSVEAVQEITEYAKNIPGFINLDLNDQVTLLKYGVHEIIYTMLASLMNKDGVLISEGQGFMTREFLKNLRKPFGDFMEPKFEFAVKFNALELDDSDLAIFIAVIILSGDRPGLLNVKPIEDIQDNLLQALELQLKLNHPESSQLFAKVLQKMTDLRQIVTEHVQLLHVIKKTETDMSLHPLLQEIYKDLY

Drawing on ChEMBL document CHEMBL1134264, “Identification of a subtype selective human PPARalpha agonist through parallel-array synthesis” (Bioorg Med Chem Lett, 2001), this text covers EC50 for one compound.

In test [1] the target is Peroxisome proliferator-activated receptor gamma (Mus musculus, UniProt P37238).
Test [2] deals with T1, Peroxisome proliferator-activated receptor delta (Mus musculus, UniProt P35396).
T1 sequence (P35396 whole entry): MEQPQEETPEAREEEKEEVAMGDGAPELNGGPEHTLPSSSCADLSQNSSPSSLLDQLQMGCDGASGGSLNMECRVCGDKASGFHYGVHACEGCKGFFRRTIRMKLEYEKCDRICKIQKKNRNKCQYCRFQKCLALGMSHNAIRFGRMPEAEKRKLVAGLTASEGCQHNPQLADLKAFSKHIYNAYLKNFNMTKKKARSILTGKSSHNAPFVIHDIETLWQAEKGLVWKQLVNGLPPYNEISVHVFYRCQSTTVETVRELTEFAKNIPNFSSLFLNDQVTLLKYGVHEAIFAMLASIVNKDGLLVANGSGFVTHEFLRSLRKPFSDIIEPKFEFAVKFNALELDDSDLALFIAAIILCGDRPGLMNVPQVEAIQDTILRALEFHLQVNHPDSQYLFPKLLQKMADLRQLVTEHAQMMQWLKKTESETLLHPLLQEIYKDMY

The structures appear in SMILES notation.

For the compound `CC(C)(Sc1ccc(CCN(CCCCC2CCCCC2)C(=O)NC2CCCCC2)cc1)C(=O)O` [GW7647], the results for the concentration giving a half-maximal response (EC50) in test [1] and in test [2] were 1300 nM and 2900 nM, respectively.
